The chains behind the UniProt entries cited, without tags or fusion partners.
Natural full-length AAT from human serum, P01009, UniProt P01009, whole entry, looked up: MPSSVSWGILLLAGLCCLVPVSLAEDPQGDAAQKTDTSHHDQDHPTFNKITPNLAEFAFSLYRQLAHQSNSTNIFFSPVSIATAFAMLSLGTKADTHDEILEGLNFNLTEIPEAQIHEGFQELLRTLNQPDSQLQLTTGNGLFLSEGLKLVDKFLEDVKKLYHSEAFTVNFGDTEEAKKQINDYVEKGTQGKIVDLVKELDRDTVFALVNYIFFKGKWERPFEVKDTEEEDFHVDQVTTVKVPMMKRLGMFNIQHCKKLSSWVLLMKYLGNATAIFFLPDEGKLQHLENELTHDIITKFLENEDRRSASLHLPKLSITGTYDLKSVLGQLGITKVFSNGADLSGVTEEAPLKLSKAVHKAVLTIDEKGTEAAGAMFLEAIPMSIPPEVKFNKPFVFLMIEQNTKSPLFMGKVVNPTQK

In US20230414730:

Columns and labels:
[1] = molecular target: AAT derived from transduced MSCs (human Alpha-1 antitrypsin expressed from genetically modified primary human MSCs, in cell culture supernatant), P01009
[2] = molecular target: Natural full-length AAT from human serum, P01009

B1: neutrophil elastase (protein)
chain: IVGGRRARPHAWPFMVSLQLRGGHFCGATLIAPNFVMSAAHCVANVNVRAVRVVLGAHNLSRREPTRQVFAVQRIFENGYDPVNLLNDIVILQLNGSATINANVQVAQLPAQGRRLGNGVQCLAMGWGLLGRNRGIASVLQELNVTVVTSLCRRSNVCTLVRGRQAGVCFGDSGSPLVCNGLIHGIASFVRGGCASGLYPDAFAPVAQFVNWIDSIIQ
RFU output from hydrolyzation of a fluorescent elastase substrate (neutrophil elastase activity) [1]: AAT derived from transduced MSCs and from human plasma is equally potent in inhibiting neutrophil elastase
RFU output from hydrolyzation of a fluorescent elastase substrate (neutrophil elastase activity) [2]: AAT derived from transduced MSCs and from human plasma is equally potent in inhibiting neutrophil elastase
